Earlier results on 1 molecule are cited in US5272175A, “Substituted tyrosyl diamide compounds” (priority 1992, dated 1993).

This data set has as its system μ, κ and δ opioid receptors. The settings on record: central nervous system; cited from earlier work.

Turning to `C=CCN1CC[C@]23c4c5ccc(O)c4O[C@H]2C(=O)CC[C@@]3(O)[C@H]1C5` [naloxone], the “affinity for all three opioid receptor categories” value is “bind with high affinity to all three categories of opioid receptors”.
